# Laboratory results from ChEMBL document CHEMBL1137067, “Alpha-1-C-alkyl-1-deoxynojirimycin derivatives as potent and selective inhibitors of intestinal isomaltase: remarkable effect of the alkyl chain length on glycosidase inhibitory profile” (Bioorg Med Chem Lett, 2004).
# Test system: trehalase (Sus scrofa)
# Experiment: Inhibitory activity against trehalase from porcine kidney at 1000 uM
smiles,measurement,value
CCCC[C@@H]1N[C@@H](CO)[C@@H](O)[C@H](O)[C@@H]1O,inhibition,< 50%
